Numbering of substitutions follows the chain as printed. Read-outs that look alike come from different tables or passages of the source.
Columns and labels:
Assay in all cases: competition
[1] = target: T1, mouse delta opioid receptor (mORD1, msl-2) (Mus musculus)
T1 chain: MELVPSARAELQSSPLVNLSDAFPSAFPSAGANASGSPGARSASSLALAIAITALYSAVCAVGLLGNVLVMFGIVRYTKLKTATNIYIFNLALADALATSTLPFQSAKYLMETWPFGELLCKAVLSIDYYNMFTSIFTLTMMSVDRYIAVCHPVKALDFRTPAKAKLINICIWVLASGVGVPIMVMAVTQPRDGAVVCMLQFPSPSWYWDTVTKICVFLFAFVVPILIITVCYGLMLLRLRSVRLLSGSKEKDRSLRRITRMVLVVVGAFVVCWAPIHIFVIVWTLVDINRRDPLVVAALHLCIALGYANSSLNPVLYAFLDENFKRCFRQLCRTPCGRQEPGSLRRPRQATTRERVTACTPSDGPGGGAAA

[2] = target: T2, delta opioid receptor D128N mutant (Mus musculus)
T2 chain: T1 chain with D128N

human mu opioid receptor [3] = target: T3, human mu opioid receptor (Homo sapiens, UniProt P35372)
rat mu opioid receptor = target: T4, rat mu opioid receptor (Rattus norvegicus, UniProt P33535)
T4 chain: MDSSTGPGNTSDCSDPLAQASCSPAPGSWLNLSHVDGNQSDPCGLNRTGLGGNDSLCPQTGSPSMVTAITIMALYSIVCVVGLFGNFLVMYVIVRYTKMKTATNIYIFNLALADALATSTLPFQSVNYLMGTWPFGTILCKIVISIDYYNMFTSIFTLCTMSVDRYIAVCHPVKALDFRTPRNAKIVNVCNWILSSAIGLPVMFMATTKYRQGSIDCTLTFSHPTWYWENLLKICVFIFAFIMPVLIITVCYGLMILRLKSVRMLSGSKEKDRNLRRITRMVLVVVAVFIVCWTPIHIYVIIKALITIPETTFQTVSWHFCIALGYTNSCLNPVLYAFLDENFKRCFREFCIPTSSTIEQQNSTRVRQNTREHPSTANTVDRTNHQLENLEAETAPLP

human mu opioid receptor [4] = target: T3, human mu opioid receptor; remark: listed apart in the source
[5] = target: T1, mouse delta opioid receptor (mORD1, …)
[6] = target: T5, delta opioid receptor H278N mutant (Mus musculus)
T5 chain: T1 chain with H278N

B1: beta-Endorphin (protein)
chain: WCLESSQCQDLTTESNLLECIRACKPDLSAETPMFPGNGDEQPLTENPRKYVMGHFRWDRFGRRNSSSSGSSGAGQKREDVSAGEDCGPLPEGGPEPRSDGAKPGPREGKRSYSMEHFRWGKPVGKKRRPVKVYPNGAEDESAEAFPLEFKRELTGQRLREGDGPDGPADDGAGAQADLEHSLLVAAEKKDEGPYRMEHFRWGSPPKDKRYGGFMTSEKSQTPLVTLFKNAIIKNAYKKGE
Ki [1]: 26 nM | Ki [2]: 15800 nM | Ki (human mu opioid receptor [3]): 0.94 nM | Ki (rat mu opioid receptor): 1.7 nM | Ki (human mu opioid receptor [4]): 0.94 nM | IC50 [5]: 15.3 nM | Ki [6]: 8.1 nM
